Reference: patent US9045526B2 (THE REGENTS OF THE UNIVERSITY OF MICHIGAN, priority 2011, dated 2015)

By UniProt entry, the sequences of proteins in these tests, tags left out.
UniProt P33535, whole entry: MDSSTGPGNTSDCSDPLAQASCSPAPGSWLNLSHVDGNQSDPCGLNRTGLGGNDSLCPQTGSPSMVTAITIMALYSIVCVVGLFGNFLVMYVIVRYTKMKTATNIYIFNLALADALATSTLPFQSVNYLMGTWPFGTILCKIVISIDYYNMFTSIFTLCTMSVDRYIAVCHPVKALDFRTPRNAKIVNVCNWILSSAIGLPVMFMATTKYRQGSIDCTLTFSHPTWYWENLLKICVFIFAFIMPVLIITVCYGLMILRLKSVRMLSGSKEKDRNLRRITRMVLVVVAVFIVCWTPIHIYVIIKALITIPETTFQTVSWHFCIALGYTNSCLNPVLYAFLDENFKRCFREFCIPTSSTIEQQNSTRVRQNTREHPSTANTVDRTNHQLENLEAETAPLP

Tests used:
[1] = target: T1, mu-opioid receptor (MOR) (Rattus norvegicus, UniProt P33535); settings: read-out: EC50 as MOR agonist; reported by McFadyen et al. 2000, compared to fentanyl; cited from earlier work
[2] = target: T1, mu-opioid receptor (MOR); test: Radioligand binding, displacement of [3H]diprenorphine, C6-MOR membranes; settings: MOR over DOR

In the case of `CC1(C)SCCSC[C@@H](NC(=O)[C@@H](N)Cc2ccc(O)cc2)C(=O)N[C@@H](Cc2ccccc2)C(=O)N[C@H]1C(N)=O`, the EC50 [1] is given as 2.93 nM and the “MOR selectivity in binding to opioid receptors” value [2] is given as 100 fold.
